ChEMBL document CHEMBL3232832, “Derivatives of dibenzothiophene for positron emission tomography imaging of α7-nicotinic acetylcholine receptors” (J Med Chem, 2013)
pKi: −log10 of the molar value.

Protein sequences, listed by entry. Tags and fused reporters are not part of them.
UniProt Q05941, whole entry: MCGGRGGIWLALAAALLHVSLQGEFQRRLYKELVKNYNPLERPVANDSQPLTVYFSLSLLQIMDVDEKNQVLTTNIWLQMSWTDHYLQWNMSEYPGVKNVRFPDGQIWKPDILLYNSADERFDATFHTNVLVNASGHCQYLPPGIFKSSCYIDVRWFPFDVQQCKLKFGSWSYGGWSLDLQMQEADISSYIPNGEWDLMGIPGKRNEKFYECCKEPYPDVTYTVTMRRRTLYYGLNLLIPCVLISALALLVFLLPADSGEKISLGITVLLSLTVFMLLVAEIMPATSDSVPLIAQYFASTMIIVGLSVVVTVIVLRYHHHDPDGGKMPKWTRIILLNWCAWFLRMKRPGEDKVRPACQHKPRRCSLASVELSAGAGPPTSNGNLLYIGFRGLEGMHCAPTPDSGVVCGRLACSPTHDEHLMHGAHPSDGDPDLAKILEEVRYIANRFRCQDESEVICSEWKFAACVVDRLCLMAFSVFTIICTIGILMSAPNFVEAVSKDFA

Target: Neuronal acetylcholine receptor subunit alpha-7 (Rattus norvegicus, UniProt Q05941)
Test: Displacement of [125I]alpha-bungarotoxin from Sprague-Dawley rat brain alpha7-nAChR after 3 hrs

## O=C(Oc1ccc([76Br])cc1)N1CCN2CCC1CC2
  pKi: 7.60
